Experimental findings from ChEMBL document CHEMBL3734654, “Mutational mapping of the transmembrane binding site of the G-protein coupled receptor TGR5 and binding mode prediction of TGR5 agonists” (Eur J Med Chem, 2015) are described below.

Assay type in all cases: functional, cell-based
The test system of test [1] is T1, G-protein coupled bile acid receptor 1 (Homo sapiens), Q8TDU6 [Y240F].
T1 sequence (whole entry): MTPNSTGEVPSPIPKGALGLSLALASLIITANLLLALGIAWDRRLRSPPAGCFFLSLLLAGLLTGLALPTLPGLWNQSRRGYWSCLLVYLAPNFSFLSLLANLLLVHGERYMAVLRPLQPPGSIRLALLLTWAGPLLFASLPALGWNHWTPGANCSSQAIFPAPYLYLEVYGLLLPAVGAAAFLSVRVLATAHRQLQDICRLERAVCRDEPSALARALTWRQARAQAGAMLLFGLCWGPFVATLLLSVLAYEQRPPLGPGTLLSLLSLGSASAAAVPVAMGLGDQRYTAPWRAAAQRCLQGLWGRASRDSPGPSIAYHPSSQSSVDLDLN
Description: Agonist activity at human TGR5 Y240F mutant expressed in HEK293 cells assessed as rise in intracellular cAMP level at 10 uM incubated for 16 hrs by luciferase reporter gene assay relative to wildtype.

Test [2] concerns T2, G-protein coupled bile acid receptor 1 (Homo sapiens), Q8TDU6 [N93A].
T2 sequence (whole entry): T1 sequence (whole entry) with N93A, F240Y
Description: Agonist activity at human TGR5 N93A mutant expressed in HEK293 cells assessed as reduction in forskolin-induced intracellular cAMP level at 0.1 to 10 uM incubated for 16 hrs by luciferase reporter gene assay.

The test system of test [3] is T3, G-protein coupled bile acid receptor 1 (Homo sapiens), Q8TDU6 [Y240A].
T3 sequence (whole entry): T1 sequence (whole entry) with F240A
The test can be described thus: Agonist activity at human TGR5 Y240A mutant expressed in HEK293 cells assessed as reduction in forskolin-induced intracellular cAMP level incubated for 16 hrs by luciferase reporter gene assay. (Cyclic AMP is a second messenger, typically raised through Gs and lowered through Gi signalling.)

Test [4] relates to T4, G-protein coupled bile acid receptor 1 (Homo sapiens), Q8TDU6 [S270A].
T4 sequence (whole entry): T1 sequence (whole entry) with F240Y, S270A
Description: Agonist activity at human TGR5 S270A mutant expressed in HEK293 cells assessed as rise in intracellular cAMP level incubated for 16 hrs by luciferase reporter gene assay.

In test [5] the test system is T5, G-protein coupled bile acid receptor 1 (Homo sapiens), Q8TDU6 [L244A].
T5 sequence (whole entry): T1 sequence (whole entry) with F240Y, L244A
The test can be described thus: Agonist activity at human TGR5 L244A mutant expressed in HEK293 cells assessed as reduction in forskolin-induced intracellular cAMP level incubated for 16 hrs by luciferase reporter gene assay.

The test system of test [6] is T6, G-protein coupled bile acid receptor 1 (Homo sapiens), Q8TDU6 [S21A].
T6 sequence (whole entry): T1 sequence (whole entry) with S21A, F240Y
Description: Agonist activity at human TGR5 S21A mutant expressed in HEK293 cells assessed as rise in intracellular cAMP level at 10 uM incubated for 16 hrs by luciferase reporter gene assay relative to wildtype.

For test [7], the system named is T5, G-protein coupled bile acid receptor 1 (Homo sapiens), Q8TDU6 [L244A]. The test can be described thus: Agonist activity at human TGR5 L244A mutant expressed in HEK293 cells assessed as rise in intracellular cAMP level at 10 uM incubated for 16 hrs by luciferase reporter gene assay relative to wildtype.
In test [8] the test system is T1, G-protein coupled bile acid receptor 1 (Homo sapiens), Q8TDU6 [Y240F]. The test can be described thus: Agonist activity at human TGR5 Y240F mutant expressed in HEK293 cells assessed as reduction in forskolin-induced intracellular cAMP level incubated for 16 hrs by luciferase reporter gene assay.
Test [9] deals with T7, G-protein coupled bile acid receptor 1 (Homo sapiens), Q8TDU6 [R79A].
T7 sequence (whole entry): T1 sequence (whole entry) with R79A, F240Y
The test can be described thus: Agonist activity at human TGR5 R79A mutant expressed in HEK293 cells assessed as rise in intracellular cAMP level incubated for 16 hrs by luciferase reporter gene assay.

Test [10] concerns T5, G-protein coupled bile acid receptor 1 (Homo sapiens), Q8TDU6 [L244A]. The test can be described thus: Agonist activity at human TGR5 L244A mutant expressed in HEK293 cells assessed as rise in intracellular cAMP level incubated for 16 hrs by luciferase reporter gene assay.
In test [11] the test system is T2, G-protein coupled bile acid receptor 1 (Homo sapiens), Q8TDU6 [N93A]. The test can be described thus: Agonist activity at human TGR5 N93A mutant expressed in HEK293 cells assessed as rise in intracellular cAMP level at 10 uM incubated for 16 hrs by luciferase reporter gene assay relative to wildtype.
Test [12] has as its system T8, G-protein coupled bile acid receptor 1 (Homo sapiens), Q8TDU6 [Y89A].
T8 sequence (whole entry): T1 sequence (whole entry) with Y89A, F240Y
Description: Agonist activity at human TGR5 Y89A mutant expressed in HEK293 cells assessed as rise in intracellular cAMP level at 10 uM incubated for 16 hrs by luciferase reporter gene assay relative to wildtype.

The subject of test [13] is T7, G-protein coupled bile acid receptor 1 (Homo sapiens), Q8TDU6 [R79A]. The test can be described thus: Agonist activity at human TGR5 R79A mutant expressed in HEK293 cells assessed as rise in intracellular cAMP level at 10 uM incubated for 16 hrs by luciferase reporter gene assay relative to wildtype.
The test system of test [14] is T4, G-protein coupled bile acid receptor 1 (Homo sapiens), Q8TDU6 [S270A]. Description: Agonist activity at human TGR5 S270A mutant expressed in HEK293 cells assessed as rise in intracellular cAMP level at 10 uM incubated for 16 hrs by luciferase reporter gene assay relative to wildtype.
Test [15] deals with T9, G-protein coupled bile acid receptor 1 (Homo sapiens), Q8TDU6 [E169A].
T9 sequence (whole entry): T1 sequence (whole entry) with E169A, F240Y
Description: Agonist activity at human TGR5 E169A mutant expressed in HEK293 cells assessed as rise in intracellular cAMP level at 0.1 to 2.5 uM incubated for 16 hrs by luciferase reporter gene assay.

For test [16], the system named is T8, G-protein coupled bile acid receptor 1 (Homo sapiens), Q8TDU6 [Y89A]. Description: Agonist activity at human TGR5 Y89A mutant expressed in HEK293 cells assessed as rise in intracellular cAMP level at 100 uM incubated for 16 hrs by luciferase reporter gene assay relative to wildtype.
Test [17] shares this test system. The test can be described thus: Agonist activity at human TGR5 Y89A mutant expressed in HEK293 cells assessed as rise in intracellular cAMP level at 50 uM incubated for 16 hrs by luciferase reporter gene assay relative to wildtype.

Changes are numbered by the printed parent chain. The source made the active and inactive calls. The calls are words filed in the database; no cut-off is given here.

Regarding `C[C@H](CCC(=O)NCCS(=O)(=O)O)[C@H]1CC[C@H]2[C@@H]3CC[C@@H]4C[C@H](O)CC[C@]4(C)[C@H]3C[C@H](O)[C@]12C`, the Activity in test [1] was 17%; in test [4] it was “Dose-dependent effect”; in [6], 104%; in [7], 57%; in test [9] it was “Dose-dependent effect”; in test [10], “Dose-dependent effect”. Moreover, the Activity stood at 12% in test [11], 117% in test [12], 65% in test [13] and 81% in test [14]. Also, the outcome in [2] and in test [15] was inactive. Also, the result in [3], in test [5] and in test [8] was Active.
In the case of `C[C@H](CCC(=O)NCCS(=O)(=O)O)[C@H]1CC[C@H]2[C@@H]3[C@@H](O)C[C@@H]4C[C@H](O)CC[C@]4(C)[C@H]3CC[C@]12C`, the Activity in [16] worked out at 39%.
Regarding `C[C@H](CCC(=O)NCCS(=O)(=O)O)[C@H]1CC[C@H]2[C@@H]3[C@H](O)C[C@@H]4C[C@H](O)CC[C@]4(C)[C@H]3CC[C@]12C`, the Activity in test [17] was 92%.
